Source: ChEMBL document CHEMBL1140700, “Substituted pyrazoles as hepatoselective HMG-CoA reductase inhibitors: discovery of (3R,5R)-7-[2-(4-fluoro-phenyl)-4-isopropyl-5-(4-methyl-benzylcarbamoyl)-2H-pyrazol-3-yl]-3,5-dihydroxyheptanoic acid (PF-3052334) as a candidate for the treatment of hypercholesterolemia” (J Med Chem, 2008)

Legend:
[1] = molecular target: T1, 3-hydroxy-3-methylglutaryl-coenzyme A reductase (Rattus norvegicus, UniProt P51639); assay: Inhibition of HMG-CoA reductase in Sprague-Dawley rat liver microsomes; set-up: species or system Microsome
T1 sequence (P51639 whole entry): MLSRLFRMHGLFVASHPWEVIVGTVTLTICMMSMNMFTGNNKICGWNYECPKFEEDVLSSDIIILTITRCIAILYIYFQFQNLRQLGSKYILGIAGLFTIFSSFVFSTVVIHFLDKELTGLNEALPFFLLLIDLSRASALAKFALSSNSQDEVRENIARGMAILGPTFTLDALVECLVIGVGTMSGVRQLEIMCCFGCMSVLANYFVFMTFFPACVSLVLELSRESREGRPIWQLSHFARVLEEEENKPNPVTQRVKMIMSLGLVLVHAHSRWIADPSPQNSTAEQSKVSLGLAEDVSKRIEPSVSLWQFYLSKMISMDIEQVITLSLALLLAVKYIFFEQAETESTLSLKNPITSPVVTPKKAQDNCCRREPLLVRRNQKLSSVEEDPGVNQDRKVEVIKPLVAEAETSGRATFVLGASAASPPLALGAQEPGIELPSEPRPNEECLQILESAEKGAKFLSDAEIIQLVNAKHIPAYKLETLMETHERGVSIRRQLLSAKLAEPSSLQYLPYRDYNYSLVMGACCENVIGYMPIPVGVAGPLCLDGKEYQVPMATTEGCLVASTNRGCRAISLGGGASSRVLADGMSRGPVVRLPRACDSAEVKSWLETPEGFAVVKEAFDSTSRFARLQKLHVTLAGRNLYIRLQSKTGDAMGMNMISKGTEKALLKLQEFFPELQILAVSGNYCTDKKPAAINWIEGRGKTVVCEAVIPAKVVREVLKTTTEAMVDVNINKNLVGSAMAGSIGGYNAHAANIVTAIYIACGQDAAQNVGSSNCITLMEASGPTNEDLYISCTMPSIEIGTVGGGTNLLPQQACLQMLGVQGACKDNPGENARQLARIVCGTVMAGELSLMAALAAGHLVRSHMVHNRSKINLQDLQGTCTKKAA

Hepatocyte = assay: Ratio of IC50 for cholesterol synthesis in rat myocytes to rat hepatocytes; assay type: functional

| SMILES | IC50 [1] | Ratio IC50 (Hepatocyte) |
| --- | --- | --- |
| CC(C)c1c(C(=O)N(C)[C@@H](C)c2ccccc2)nn(-c2ccc(F)cc2)c1CC[C@@H](O)C[C@@H](O)CC(=O)O | 0.045 µM | – |
| CC(C)c1c(C(=O)N(C)[C@H](C)c2ccccc2)nn(-c2ccc(F)cc2)c1CC[C@@H](O)C[C@@H](O)CC(=O)[O-].[Na+] | 0.0015 µM | 6300 |
| CC(C)c1c(C(=O)Nc2ccccc2)c(-c2ccccc2)c(-c2ccc(F)cc2)n1CC[C@@H](O)C[C@@H](O)CC(=O)O [ATORVASTATIN] | 0.012 µM | – |
